Test results: patent US20250134865A1, “METHODS OF WEIGHT LOSS IN A SUBJECT WITH ELEVATED HBA1C” (published 2025)
Values joined by “and” are separate entries in the source; they are usually repeats but may differ in a detail not shown here. Identical values can stand only once. Marks after values point to notes of the source that are not given here.

Experiments:
[1] = tested on: subjects with nonalcoholic fatty liver disease (NAFLD), elevated liver fat (>8%), and elevated body mass index (BMI); test: Phase 2a trial: CAP score
[2] = tested on: subjects with nonalcoholic fatty liver disease (NAFLD), elevated liver fat (>8%), and elevated body mass index (BMI); test: Phase 2a trial: safety and tolerability; conditions: 61 days
[3] = tested on: subjects with nonalcoholic fatty liver disease (NAFLD), elevated liver fat (>8%), and elevated body mass index (BMI); test: Phase 2a trial: liver fat content by MRI-PDFF; conditions: for MRI-Proton Density Fat Fraction, Difference in LS Mean, Compound 1-Placebo / Responder (>30% liver fat reduction by MRI-PDFF), share of subjects: Day 61
[4] = 15 mg (so in the source), HbA1c 5.7%-9.0% subgroup
[5] = 150 mg, HbA1c 5.7% to 9.0% subgroup
[6] = 150 mg, HbA1c 5.7%-9.0% subgroup
[7] = 300 mg, HbA1c 5.7% to 9.0% subgroup
[8] = 300 mg, HbA1c 5.7%-9.0% subgroup

Cn1c(COc2ccc([N+](=O)[O-])cc2[N+](=O)[O-])cnc1[N+](=O)[O-]
CAP, LS mean change at day 61 ([1]; 150 mg, HbA1c subgroup): −33.2^a dB/m | CAP, LS mean change at day 61 ([1]; 150 mg, overall population): −22.2 dB/m | CAP, LS mean change at day 61 ([1]; 300 mg, HbA1c subgroup): −39.8^a dB/m | CAP, LS mean change at day 61 ([1]; 300 mg, overall population): −44.9^c dB/m | CAP, LS mean change at day 61 ([1]; 450 mg, HbA1c subgroup): −20.0 dB/m | CAP, LS mean change at day 61 ([1]; 450 mg, overall population): −38.3^b dB/m | Diarrhea, share of Compound 1 subjects ([2]; all Compound 1 doses, most often mild): 35% and 25% | Flushing, share of Compound 1 subjects ([2]; all Compound 1 doses, most often mild, transient, associated with alcohol intake): 25% and 31.6% | Tolerability ([2]; all dose levels): well-tolerated at all dose levels | MRI-PDFF change from baseline at Day 61, Difference of LS Mean and Placebo [3, 4]: −5.83 | MRI-PDFF mean change from baseline at Day 61, LS Mean (ANCOVA) [3, 4]: −5.35 | MRI-PDFF percent change from baseline to Day 61, Mean ([3]; 150 mg once daily oral, HbA1c 5.7%-9.0% subgroup): −36.488% | MRI-Proton Density Fat Fraction, Difference in LS Mean, Compound 1-Placebo [3, 5]: −5.83% | MRI-Proton Density Fat Fraction, Difference in LS Mean, Compound 1-Placebo ([3]; 150 mg, all subjects): −5.21% | Non-responder (MRI-PDFF), share of subjects ([3]; 150 mg, FAS population): 10 (50.0%) | Responder (>30% liver fat reduction by MRI-PDFF), share of subjects ([3]; 150 mg, FAS population): 40% | Responder (>30% liver fat reduction by MRI-PDFF), share of subjects ([3]; 150 mg, FAS population, listed as CM1): 8 (40.0%) | MRI-Proton Density Fat Fraction at Day 61, Mean [3, 5]: 16.2% | MRI-Proton Density Fat Fraction at Day 61, Median [3, 5]: 19.0% | MRI-Proton Density Fat Fraction, Day 61-Baseline, LS Mean [3, 5]: −5.35% | MRI-Proton Density Fat Fraction, Day 61-Baseline, Mean [3, 5]: −6.6% | MRI-Proton Density Fat Fraction, Day 61-Baseline, Median [3, 5]: −8.0% | MRI-PDFF percent change from baseline to Day 61, Median [3, 6]: −32.985% | Non-responder (MRI-PDFF), share of subjects [3, 6]: 3 (42.9%) | Responder (>30% liver fat reduction by MRI-PDFF), share of subjects [3, 6]: 43% | Responder (>30% liver fat reduction by MRI-PDFF), share of subjects ([3]; 150 mg, HbA1c 5.7%-9.0% subgroup, listed as CM1): 3 (42.9%) | MRI-Proton Density Fat Fraction at Day 61, Mean ([3]; 150 mg, all subjects): 13.7% | MRI-Proton Density Fat Fraction at Day 61, Median ([3]; 150 mg, all subjects): 12.7% | MRI-Proton Density Fat Fraction, Day 61-Baseline, LS Mean ([3]; 150 mg, all subjects): −4.64% | MRI-Proton Density Fat Fraction, Day 61-Baseline, Mean ([3]; 150 mg, all subjects): −5.0% | MRI-Proton Density Fat Fraction, Day 61-Baseline, Median ([3]; 150 mg, all subjects): −5.8% | MRI-PDFF percent change from baseline to Day 61, Mean ([3]; 300 mg once daily oral, HbA1c 5.7%-9.0% subgroup): −39.186% | MRI-Proton Density Fat Fraction, Difference in LS Mean, Compound 1-Placebo [3, 7]: −6.89% | MRI-Proton Density Fat Fraction, Difference in LS Mean, Compound 1-Placebo ([3]; 300 mg, all subjects): −6.77% | Non-responder (MRI-PDFF), share of subjects ([3]; 300 mg, FAS population): 5 (23.8%) | Responder (>30% liver fat reduction by MRI-PDFF), share of subjects ([3]; 300 mg, FAS population): 71% | Responder (>30% liver fat reduction by MRI-PDFF), share of subjects ([3]; 300 mg, FAS population, listed as CM1): 15 (71.4%) | MRI-Proton Density Fat Fraction at Day 61, Mean [3, 7]: 14.0% | MRI-Proton Density Fat Fraction at Day 61, Median [3, 7]: 16.1% | MRI-Proton Density Fat Fraction, Day 61-Baseline, LS Mean [3, 7]: −6.41% | MRI-Proton Density Fat Fraction, Day 61-Baseline, Mean [3, 7]: −7.1% | MRI-Proton Density Fat Fraction, Day 61-Baseline, Median [3, 7]: −9.0% | MRI-PDFF change from baseline at Day 61, Difference of LS Mean and Placebo [3, 8]: −6.89 | MRI-PDFF mean change from baseline at Day 61, LS Mean (ANCOVA) [3, 8]: −6.41 | MRI-PDFF percent change from baseline to Day 61, Median [3, 8]: −39.730% | Non-responder (MRI-PDFF), share of subjects [3, 8]: 1 (12.5%) | Responder (>30% liver fat reduction by MRI-PDFF), share of subjects [3, 8]: 75% | Responder (>30% liver fat reduction by MRI-PDFF), share of subjects ([3]; 300 mg, HbA1c 5.7%-9.0% subgroup, listed as CM1): 6 (75.0%) | MRI-Proton Density Fat Fraction at Day 61, Mean ([3]; 300 mg, all subjects): 11.2% | MRI-Proton Density Fat Fraction at Day 61, Median ([3]; 300 mg, all subjects): 10.4% | MRI-Proton Density Fat Fraction, Day 61-Baseline, LS Mean ([3]; 300 mg, all subjects): −6.21% | MRI-Proton Density Fat Fraction, Day 61-Baseline, Mean ([3]; 300 mg, all subjects): −6.2% | MRI-Proton Density Fat Fraction, Day 61-Baseline, Median ([3]; 300 mg, all subjects): −5.9% | MRI-PDFF percent change from baseline to Day 61, Mean ([3]; 450 mg once daily oral, HbA1c 5.7%-9.0% subgroup): −43.734% | MRI-Proton Density Fat Fraction, Difference in LS Mean, Compound 1-Placebo ([3]; 450 mg, HbA1c 5.7% to 9.0% subgroup): −7.45% | MRI-Proton Density Fat Fraction, Difference in LS Mean, Compound 1-Placebo ([3]; 450 mg, all subjects): −6.60%
